From patent US20120149631A1 (priority 2009, published 2012) come the findings set out here.

This data set relates to horse erythrocytes. Kind of data set: Hemolysis assay. The class given is cell-based. The conditions noted are these: 2% horse erythrocytes, 1 h.

As for `N=C(N)NCCC[C@H](NC(=O)[C@@H](N)CCCCN)C(=O)N[C@@H](Cc1ccccc1)C(=O)N[C@@H](CCCCN)C(=O)N[C@@H](CCCCN)C(=O)N[C@@H](Cc1ccccc1)C(=O)N[C@@H](Cc1ccccc1)C(=O)N[C@@H](CCCCN)C(=O)N[C@@H](CCCCN)C(=O)N1CCC[C@H]1C(=O)N[C@@H](CCCCN)C(N)=O` [ATRA-1P], for the setting “100 ug/ml peptide”, the hemolysis was 1.9%.
With `CC(C)C[C@H](NC(=O)[C@H](CCCCN)NC(=O)[C@H](CCCCN)NC(=O)[C@H](Cc1ccccc1)NC(=O)[C@H](Cc1ccccc1)NC(=O)[C@H](CCCCN)NC(=O)[C@H](CCCCN)NC(=O)[C@H](C)NC(=O)[C@H](CCCNC(=N)N)NC(=O)[C@@H](N)CCCCN)C(=O)N[C@@H](CCCCN)C(N)=O` [ATRA-1A], the hemolysis runs as follows: (100 ug/ml peptide) 1.1%; (1000 ug/ml peptide) 3.5%.
